Experimental findings from US20250280861A1, “SWEETENER COMPOSITIONS” (Firmenich Incorporated, priority 2022, published 2025) are described below.

Sequences of proteins named here, by UniProt entry; tags and fusion partners are left off. Residues count along the entry.
UniProt Q7RTX0, 21-852 limits assumed: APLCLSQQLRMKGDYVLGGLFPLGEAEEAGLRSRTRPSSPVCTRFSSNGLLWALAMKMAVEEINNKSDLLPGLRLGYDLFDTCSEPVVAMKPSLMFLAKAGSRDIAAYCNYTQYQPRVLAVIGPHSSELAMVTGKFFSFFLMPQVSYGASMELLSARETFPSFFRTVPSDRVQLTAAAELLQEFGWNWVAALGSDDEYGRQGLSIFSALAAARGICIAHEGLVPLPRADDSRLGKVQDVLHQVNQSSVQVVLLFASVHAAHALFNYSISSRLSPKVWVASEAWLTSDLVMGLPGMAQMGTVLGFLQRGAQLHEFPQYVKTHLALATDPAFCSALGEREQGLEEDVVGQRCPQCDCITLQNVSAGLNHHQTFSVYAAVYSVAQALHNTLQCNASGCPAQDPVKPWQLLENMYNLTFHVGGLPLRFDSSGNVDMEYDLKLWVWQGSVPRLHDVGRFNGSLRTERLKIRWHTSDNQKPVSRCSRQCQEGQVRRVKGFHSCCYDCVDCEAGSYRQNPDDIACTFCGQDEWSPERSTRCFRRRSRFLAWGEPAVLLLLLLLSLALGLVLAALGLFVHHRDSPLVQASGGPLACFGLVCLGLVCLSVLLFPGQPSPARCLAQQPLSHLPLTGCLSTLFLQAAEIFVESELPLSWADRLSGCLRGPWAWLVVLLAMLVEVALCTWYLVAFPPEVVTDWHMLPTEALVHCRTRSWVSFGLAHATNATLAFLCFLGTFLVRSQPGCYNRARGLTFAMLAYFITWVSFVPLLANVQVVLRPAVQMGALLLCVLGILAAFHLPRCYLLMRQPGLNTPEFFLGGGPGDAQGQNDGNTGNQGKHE
UniProt Q8TE23, 20-839 limits assumed: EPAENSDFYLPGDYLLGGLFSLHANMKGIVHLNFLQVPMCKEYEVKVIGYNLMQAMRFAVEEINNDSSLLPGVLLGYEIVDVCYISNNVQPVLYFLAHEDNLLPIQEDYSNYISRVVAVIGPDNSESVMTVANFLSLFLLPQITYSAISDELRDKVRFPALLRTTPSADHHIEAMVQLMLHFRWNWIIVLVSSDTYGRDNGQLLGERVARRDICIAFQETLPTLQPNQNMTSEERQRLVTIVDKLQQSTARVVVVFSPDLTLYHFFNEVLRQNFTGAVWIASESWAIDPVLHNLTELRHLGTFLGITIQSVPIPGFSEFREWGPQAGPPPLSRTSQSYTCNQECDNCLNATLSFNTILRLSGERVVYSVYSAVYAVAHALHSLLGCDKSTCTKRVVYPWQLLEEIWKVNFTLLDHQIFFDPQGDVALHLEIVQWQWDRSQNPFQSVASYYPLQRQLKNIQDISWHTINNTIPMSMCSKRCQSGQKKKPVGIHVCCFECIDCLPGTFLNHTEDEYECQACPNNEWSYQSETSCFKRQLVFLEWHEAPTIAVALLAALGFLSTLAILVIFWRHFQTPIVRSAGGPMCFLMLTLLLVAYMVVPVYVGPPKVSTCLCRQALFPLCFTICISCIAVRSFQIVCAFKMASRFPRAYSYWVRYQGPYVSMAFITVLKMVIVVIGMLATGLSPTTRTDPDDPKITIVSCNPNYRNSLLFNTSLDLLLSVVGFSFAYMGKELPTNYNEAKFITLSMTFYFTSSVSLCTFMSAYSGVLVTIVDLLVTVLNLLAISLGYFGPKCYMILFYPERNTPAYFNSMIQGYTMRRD

In general, EC50 refers to the concentration at which the effect is half-maximal.

The test concerns the target hT1R2/T1R3 taste receptor (Homo sapiens, UniProt Q7RTX0+Q8TE23). Briefly: agonist activity against the hT1R2/T1R3 taste receptor (sweet receptor based assay). Conditions: read-out: Sweet EC50. As for the experimental part:
Compounds described in this application show moderate to potent agonist effect on the sweet receptor based assay. Potencies (EC50 values, e.g. see Tables 1-3) for agonist activity were measured against the hT1R2/T1R3 taste receptor. FIG. 1 exemplifies the data generated during the screening to determine EC50 values.

As for `CC(C)[C@H](C)NC(=O)C(C)(C)N1CCC(c2ccccc2)CC1`, the EC50 came out at 4.8 µM.
